Experimental data taken from patent US20070281894A1, “PREPARATION AND UTILITY OF SUBSTITUTED ERYTHROMYCIN ANALOGS” (Auspex Pharmaceuticals, Inc., priority 2006, published 2007).

Conditions: topical or ocular
Protocol: Liver microsomal stability assays were conducted at 1 mg per mL liver microsome protein with an NADPH-generating system in 2% NaHCO3 (2.2 mM NADPH, 25.6 mM glucose 6-phosphate, 6 units per mL glucose 6-phosphate dehydrogenase and 3.3 mM MgCl2). Test compounds were prepared as solutions in 20% acetonitrile-water and added to the assay mixture (final assay concentration 5 microgram per mL) and incubated at 37° C. Final concentration of acetonitrile in the assay should be <1%. Aliquots (50 μL) were taken out at times 0, 15, 30, 45, and 60 minutes, and diluted with ice cold acetonitrile (200 μL) to stop the reactions. Samples were centrifuged at 12000 RPM for 10 minutes to precipitate proteins. Supernatants were transferred to microcentrifuge tubes and stored for LC/MS/MS analysis of the degradation half-life of the test compounds.

increase in the degradation half-life as compared to the non-isotopically enriched drug (clarithromycin): 10-400%
Substance: d6-6-O-Methyl-Erythromycin A (d6-clarithromycin) [Example 14]
